Test results taken from US6610494B2, “Solid-phase activity assay for biologically active substance” (priority 1996, dated 2003).

Test system: trypsin (EC 3.4.21.4)
Assay: BEISA: competition of inhibitors or other substances for biotinylated trypsin against coated ovomucoid
Type: binding
Experimental: Methods: NHS-biotin solution (5.5 mg in 200 ul dimethyl sulfoxide) and trypsin solution (15 mg in 1000 ul PBS) were mixed and reacted at room temperature for 3 hours with gently shaking. The unconjugated biotin was removed at 4° C. using minicon-15 concentrator (Amicon. Co.). The final volume was 1000 ul.
The 96-well microtiter plate (Falcon 3911) was coated with trypsin egg white inhibitor (ovomucoid, 4 ug/100 ul/well) at […] overnight. The plate was washed once using PBST {[PBS, NaCl, 9.00; Na2HPO4, 1.15; NaH2PO4, 0.23 (g/l) pH 7.2] plus 0.05% Tween-20} and 200 ul of 5% skim milk was added to each well of the plate followed by incubation at 37° C. for 2 hours. The plate was rinsed twice with PBST and 50 ul of PBS was added to each well of the plate except for those in column one where 100 ul of PBS was added. Unlabelled trypsin (50 ul of 400 ug/ml) was added to the wells of the second column followed by successive double dilutions of trypsin in wells up to and including those in column 11. Biotinylated trypsin in PBS (50 ul of 1:3000 dilution of the stock to yield approximately 2 ug/100 ul/well) was added to each well except those in the first column followed by incubation at 37° C. for 1 hour. The final volume in each well was 100 ul. […] The absorbency was then read at 405 nm using a microplate reader (Bio-Rad laboratories Inc. Mississauga, ON, Canada, model 450). […]

## human serum albumin (HSA): other protein tested for interference
  Interference with the binding of labelled trypsin to trypsin inhibitor: did not interfere
